Measurements taken from article PMC8556396 (2021).

Tested on: RSV A2
Assay: Immunofluorescence staining and microscopy of RSV F and N;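 also: fluorescence normalized to total nuclear count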
[1] = Fig 5D, FTI-276 5 uM, perillyl alcohol 5 mM

O=c1cc(CN2CCOCC2)occ1OCCCCCSc1ccnc2cc(C(F)(F)F)ccc12 [EHT 1864]
RSV N intensity (a.u.) (Fig 7C, EHT 1864 40 uM): 1.109 a.u.

CCC(C)(C)C(=O)O[C@H]1C[C@@H](C)C=C2C=C[C@H](C)[C@H](CC[C@@H]3C[C@@H](O)CC(=O)O3)[C@H]21 [Simvastatin, simvastatin]
RSV F intensity (a.u.) (Fig 5B, statin alone: atorvastatin 3.5 uM, simvastatin 1.5 uM): 0.4508 a.u. and 0.3057 a.u. and 0.5713 a.u. and 0.59 a.u.
RSV N intensity (a.u.) (Fig 5C, statin alone: atorvastatin 3.5 uM, simvastatin 1.5 uM): 0.3368 a.u. and 0.3462 a.u. and 0.2491 a.u. and 0.4368 a.u.
RSV F intensity (a.u.) (Fig 7B, atorvastatin 3.5 uM, simvastatin 1.5 uM, EHT 1864 20 uM, CN04 1 uM, CN04 1 uM + Ato 3.5 uM): 0.2881 a.u. and 0.3736 a.u. and 0.3944 a.u. and 0.4969 a.u.

C=C(C)[C@@H]1CC=C(CO)CC1 [Perillyl alcohol, perillyl alcohol]
RSV F intensity (a.u.) (Fig 5D, FTI-276 0.5 uM, perillyl alcohol 0.5 mM): 5.739 a.u.
RSV F intensity (a.u.) (Fig 5D, FTI-276 1 uM, perillyl alcohol 1 mM): 2.761 a.u. and 2.994 a.u.
RSV F intensity (a.u.) [1]: 1.113 a.u.

CSCC[C@H](NC(=O)c1ccc(NC[C@@H](N)CS)cc1-c1ccccc1)C(=O)O.O=C(O)C(F)(F)F [FTI-276, FTI-276 trifluoroacetate salt]
RSV F intensity (a.u.) [1]: 4.494 a.u.
RSV N intensity (a.u.) (Fig 5E, FTI-276 0.5 uM, perillyl alcohol 0.5 mM): 5.737 a.u.

Values joined by “and” are separate entries in the source; they are usually repeats but may differ in a detail not shown here. Equal values may be shown once.
